{"sequences": {"note": "By UniProt entry, the sequences of proteins in these tests, tags left out. Residues count along the entry.", "UniProt O14786, 22-923 limits assumed": "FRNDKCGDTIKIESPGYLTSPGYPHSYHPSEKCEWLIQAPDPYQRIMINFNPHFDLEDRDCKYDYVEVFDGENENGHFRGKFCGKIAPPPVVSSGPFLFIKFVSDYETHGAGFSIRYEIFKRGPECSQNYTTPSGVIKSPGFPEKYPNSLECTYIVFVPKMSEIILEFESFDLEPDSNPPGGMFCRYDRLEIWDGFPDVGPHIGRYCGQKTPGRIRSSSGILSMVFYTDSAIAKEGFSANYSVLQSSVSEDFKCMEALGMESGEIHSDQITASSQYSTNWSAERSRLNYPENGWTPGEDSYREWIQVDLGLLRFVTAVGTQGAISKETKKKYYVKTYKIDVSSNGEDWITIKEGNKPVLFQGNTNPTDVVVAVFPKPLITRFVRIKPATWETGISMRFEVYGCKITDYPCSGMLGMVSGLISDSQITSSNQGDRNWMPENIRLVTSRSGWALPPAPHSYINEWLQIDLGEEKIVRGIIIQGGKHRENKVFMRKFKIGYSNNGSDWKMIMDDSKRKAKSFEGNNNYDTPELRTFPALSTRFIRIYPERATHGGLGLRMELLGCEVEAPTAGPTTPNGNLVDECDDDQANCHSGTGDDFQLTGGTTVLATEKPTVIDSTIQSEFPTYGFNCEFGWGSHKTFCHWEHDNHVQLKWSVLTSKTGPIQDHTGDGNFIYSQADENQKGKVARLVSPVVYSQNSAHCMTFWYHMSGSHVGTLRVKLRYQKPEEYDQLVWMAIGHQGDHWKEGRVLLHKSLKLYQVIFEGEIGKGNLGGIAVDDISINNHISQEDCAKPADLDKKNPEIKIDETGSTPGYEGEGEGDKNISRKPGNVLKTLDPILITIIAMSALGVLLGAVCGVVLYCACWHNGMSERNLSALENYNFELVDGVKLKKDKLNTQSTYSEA"}, "source": "patent US11826399B2", "about": "(Eisai Inc., priority 2017, dated 2023)", "biological_target": "NRP1 (Homo sapiens, UniProt O14786)", "conditions": "read-out: NRP1 Binding KD", "data": [{"substance": "Capped Capped NH2-M-C-M-P-C-F-T-T-D-H-Q-M-A-R-COOH Biotin [Peptide synthesis ER-1183034]", "values": [{"measurement": "Kd", "value": 169, "unit": "nM"}]}]}
